The record followed here is US7745001B2, “Synthesis of nanoassemblies containing luminescent quantum dots and magnetic nanoparticles” (University of New Orleans Research and Technology …, priority 2004, dated 2010).

The test addresses concanavalin A (Con A) (Canavalia ensiformis, UniProt P02866). The note with it: 15 mg free R-D-glucose added to the solution.

As for `O=C[C@H](O)[C@@H](O)[C@H](O)[C@H](O)CO` [R-D-glucose], the “effect of free sugar on Con A initiated aggregation of glyconanospheres” value is reported as “aggregation of glyconanospheres was prevented”.
